In US20180298101A1 one finds IC50, IC50 of inhibition of the JAK1 kinase domain (JH1), in vitro kinase reaction and Kd data, which are given here for four substances.

Protein sequences, listed by entry. Tags and fused reporters are not part of them. Residues count along the entry.
UniProt O60674, 835-1132: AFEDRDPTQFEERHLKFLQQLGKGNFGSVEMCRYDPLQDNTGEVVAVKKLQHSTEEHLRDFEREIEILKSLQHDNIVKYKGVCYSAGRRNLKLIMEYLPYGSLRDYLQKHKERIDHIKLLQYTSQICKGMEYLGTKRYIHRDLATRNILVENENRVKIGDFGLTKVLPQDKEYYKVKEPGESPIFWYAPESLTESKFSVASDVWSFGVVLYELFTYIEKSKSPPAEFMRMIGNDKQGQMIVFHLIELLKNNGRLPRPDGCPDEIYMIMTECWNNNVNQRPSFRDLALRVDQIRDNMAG
UniProt P52333, 811-1124: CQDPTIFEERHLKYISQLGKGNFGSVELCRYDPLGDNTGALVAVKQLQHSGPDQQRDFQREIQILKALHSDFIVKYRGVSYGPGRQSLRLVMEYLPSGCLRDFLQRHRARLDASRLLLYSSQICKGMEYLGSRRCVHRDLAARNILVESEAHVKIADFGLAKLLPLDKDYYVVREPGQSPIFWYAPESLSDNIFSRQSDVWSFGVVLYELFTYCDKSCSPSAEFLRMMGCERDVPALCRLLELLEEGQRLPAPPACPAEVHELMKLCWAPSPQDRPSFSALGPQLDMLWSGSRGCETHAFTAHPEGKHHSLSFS
UniProt P29597, 888-1187: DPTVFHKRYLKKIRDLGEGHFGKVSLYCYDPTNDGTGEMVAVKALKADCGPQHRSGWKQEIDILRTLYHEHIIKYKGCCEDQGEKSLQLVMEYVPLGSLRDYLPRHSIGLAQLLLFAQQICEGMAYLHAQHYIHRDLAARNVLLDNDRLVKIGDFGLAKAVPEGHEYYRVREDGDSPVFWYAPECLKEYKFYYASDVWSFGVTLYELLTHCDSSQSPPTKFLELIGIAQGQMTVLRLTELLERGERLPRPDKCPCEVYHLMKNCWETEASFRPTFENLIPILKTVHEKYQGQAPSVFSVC
UniProt P23458, 854-1154: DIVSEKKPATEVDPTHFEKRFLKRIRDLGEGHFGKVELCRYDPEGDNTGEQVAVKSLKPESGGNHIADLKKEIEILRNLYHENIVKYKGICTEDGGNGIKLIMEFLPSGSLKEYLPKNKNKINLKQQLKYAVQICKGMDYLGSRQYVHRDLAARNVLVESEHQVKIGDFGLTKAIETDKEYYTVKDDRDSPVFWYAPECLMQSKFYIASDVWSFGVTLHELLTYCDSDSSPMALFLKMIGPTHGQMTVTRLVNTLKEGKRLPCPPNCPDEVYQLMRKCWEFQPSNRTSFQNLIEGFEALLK

In general, IC50 refers to the concentration at which inhibition is half-maximal. One may read the Kd as the concentration at which binding is half-saturated.

Targets include JAK2 kinase domain (JH1) (UniProt O60674); JAK3 kinase domain (JH1) (UniProt P52333); TYK2 kinase domain (JH1) (UniProt P29597).
The target in assay [1] is JAK1 kinase domain (JH1) (UniProt P23458).
Assay [2] has the same target. The experiment in a line: cell-based or functional assay.
Assay [3] shares this target. This is another data set of the same source.
Assay [4] shares this target. This is another data set of the same source.
In a further assay the target is IL-2Rβ (pY510). Nature of the assay: ITC. A general note: ITC needs no label: the signal is the heat of the interaction.
For the next assay, the target named is JAK1 (Y1034). Nature of the assay: ITC.
A further assay has as its target IL-2Rγ (pY357). Nature of the assay: ITC.
A further assay has as its target IL-2Rβ (pY338). Nature of the assay: ITC.
A further assay has as its target IL-2Rγ (pY325). The experiment in a line: ITC.
In the next assay the target is IL-2Rγ (pY363). Nature of the assay: ITC.
The next assay deals with IL-2Rγ (pY303). The experiment in a line: ITC.
The next assay has as its target IL-2Rβ (pY358). Nature of the assay: ITC.
In a further assay the target is mIL-2Rβ (pY392). Nature of the assay: ITC.

Where two headings read alike, the source gives them in different places.

With “human CIS lacking the PEST motif (ΔPEST) in trimeric complex with elongin B and elongin C (from UniProt Q9NSE2 1-258; Q15370 1-118; Q15369 17-112)”, the IC50 with JAK1 kinase domain (JH1) [1] stood at 3.32 µM. Further, the IC50 of inhibition of the JAK1 kinase domain (JH1), in vitro kinase reaction with JAK1 kinase domain (JH1) [2] worked out at 3320 µM.
Regarding “human full-length CIS in trimeric complex with elongin B and elongin C (from UniProt Q9NSE2 1-258; Q15370 1-118; Q15369 17-112)”, the IC50 with JAK1 kinase domain (JH1) [3] was 32.3 µM.
In the assay with JAK1 kinase domain (JH1) [4], “human CIS lacking the N-terminal 34 residues (ΔN34) in trimeric complex with elongin B and elongin C (from UniProt Q9NSE2 35-258; Q15370 1-118; Q15369 17-112)” yielded an IC50 of 96.8 µM.
Take “hCIS-SH2-BC complex (ternary complex of human GST-CIS-SH2 construct, residues 66-258 with PEST region 174-202 deleted, with Elongin B and Elongin C) (from UniProt Q9NSE2 66-258; Q15370 1-118; P83940 17-112)”: the IC50 in the assay with JAK2 kinase domain (JH1) is 2.4 µM; in the assay with JAK3 kinase domain (JH1), 6.7 µM; with TYK2 kinase domain (JH1), more than 20 µM. In addition, the Kd is more than 10 µM in the assay with IL-2Rβ (pY510); more than 10 µM with JAK1 (Y1034); more than 10 µM with IL-2Rγ (pY357); 7 µM with IL-2Rβ (pY338); more than 10 µM in the assay with IL-2Rγ (pY325); more than 10 µM in the assay with IL-2Rγ (pY363). For the same substance, the equilibrium dissociation constant (Kd) in the assay with IL-2Rγ (pY303) is more than 10 µM; with IL-2Rβ (pY358), more than 10 µM; with mIL-2Rβ (pY392), 1.5 µM.
